Reference: publication doi:10.1101/2021.01.29.428744

Molecular target: AlexaFluor594-tagged α-SYN pre-formed fibrils (PFFs) (human), P37840
Assay: two-color coincidence detection
Settings: remark: other sources report otherwise

B1: GABARAP, O95166 1-117 (natural protein)
chain: MKFVYKEEHPFEKRRSEGEKIRKKYPDRVPVIVEKAPKARIGDLDKKKYLVPSDLTVGQFYFLIRKRIHLRAEDALFFFVNNVIPPTSATMGQLYQEHHEEDFFLYIAYSDESVYGL
modifications: here or on the partner: maleimide-modified Alexa Fluor 594 dye on the cysteine thiol of A90C
relative presence of GFP species in the aggregates: 0.32
